One molecule from patent publication US4454158A, “Allyl amine MAO inhibitors” (Merrell Toraude et Compagnie, priority 1981, dated 1984) can be followed below.

This assay concerns MAO. Put plainly: Inhibition of MAO - Ex vivo, rat (14C p-tyramine substrate). In kind it is in vivo. To be noted: 1.0 mg/kg po, 2 hr. On the procedure:
The ability of a compound of Formula I or II to inhibit MAO can be determined ex vivo by the following procedure:
The test compound is administered intraperitoneally (ip), intravenously (iv), or orally (po) to rats or mice and the animals are killed at various times after treatment. […] MAO activity is determined in the homogenates using ^14 C p-tyramine, as the substrate. […] Selectivity can be determined by repeating the above-described test using either ^14 C 5-hydroxytryptamine (for MAO-A) or ^14 C phenethylamine (for MAO-B) as the substrate for determining the % inhibition

With `C#CCN(C)[C@H](C)Cc1ccccc1` [L-deprenyl, reference compound], the “% Inhibition of MAO - Liver” value amounted to 91%.
